Literature values in patent US6197768A, “Pyridocarbazole derivatives having cgmp-pde inhibitory activity” (Mochida Pharmaceutical Co., Ltd., priority 1996, dated 2001).

Test system: vascular smooth muscle cells isolated from aortic media
Settings: Garg et al. 1989; Nakaki et al. 1990; cited from earlier work

O=[N+]([O-])O[C@H]1CO[C@H]2[C@@H]1OC[C@H]2O[N+](=O)[O-]
proliferation of cultured vascular smooth muscle cells (in words): suppressed
